In patent US20230174624A1, “FERRITIN VARIANTS WITH INCREASED STABILITY, COMPLEXATION ABILITY AND TRANSFERRIN RECEPTOR AFFINITY” (CELLIS AG, priority 2020, published 2023):

Legend:
[1] = test system: siRNA; experiment: siRNA association with ferritin (gel); assay type: binding; conditions: independently from pH conditions
Protocol: FIG. 8: Picture of gel showing RNA association with Q11E ferritin mutant that is not observed in case of wild-type protein (wt).
1 ml reaction containing 2 mg Ft and 4 ug siRNA in DPBS, pH lowered to values as indicated (2.5, 3.2, 4.4, 5.6 and 6.8, respectively). Samples were incubated 15 min in RT, then NaOH was added to adjust pH to neutral (pH 7). Non-associated free siRNA was removed by 4 centrifugation steps on Amicons with 100 kDa cut-off.

[2] = Native gel after storage in a freezer (-80 degrees Celsius) and thawing; assay type: physicochemical; conditions: ferritin-dox
Text: Storage conditions for wild type ferritin are limited.

WT: human wild-type heavy chain ferritin (SEQ ID NO. 1) [reference compound]
association with siRNA [1]: no association with siRNA was observed | stability of cages after storage [2]: causes an increase of cages aggregation
